Among the data in ChEMBL document CHEMBL4041473, “Identification of novel microsomal prostaglandin E2 synthase-1 (mPGES-1) lead inhibitors from Fragment Virtual Screening” (Eur J Med Chem, 2017) are inhibition values, retold here.

One may read the inhibition as the percentage by which the read-out fell short of the control.

This assay addresses T1, Prostaglandin E synthase (Homo sapiens) (UniProt O14684).
T1 sequence (whole entry): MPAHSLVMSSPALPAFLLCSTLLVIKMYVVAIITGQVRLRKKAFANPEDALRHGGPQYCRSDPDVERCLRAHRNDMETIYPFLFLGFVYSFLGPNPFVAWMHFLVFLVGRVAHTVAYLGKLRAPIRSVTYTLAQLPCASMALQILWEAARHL
The assay can be described thus: Inhibition of mPGES-1 in microsomes isolated from IL-1beta-stimulated human A549 cells at 10 uM using PGH2 as substrate preincubated for 15 mins followed by substrate addition measured after 1 min by RP-HPLC method relative to control. It counts as cell-free. The procedure, abridged: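 mPGES-1 source: microsomes of A549 cells stimulated 48 h with IL-1β (1 ng/ml), sonicated, spun 10,000×g 10 min then 174,000×g 1 h at 4 °C. Diluted in 0.1 M potassium phosphate pH 7.4 with 2.5 mM glutathione. Compound or DMSO vehicle added 15 min at 4 °C, then 20 µM PGH2 for 1 min at 4 °C. Stopped with FeCl2/citric acid plus 11β-PGE2. PGE2 measured by solid-phase extraction and RP-HPLC.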

Consider `O=[N+]([O-])c1nonc1-c1nonc1[N+](=O)[O-]`, for which the inhibition is 20%.
